Values of other authors as cited in US8614247B2, “Methods for preventing, attenuating or treating pulmonary hypertension using a serotonin transporter inhibitor, and pharmaceutical compositions for the treatment thereof” (Institut National de la Sante et de la Recherche Medicale, priority 2003, dated 2013).

Protein sequences, listed by entry. Tags and fused reporters are not part of them.
UniProt P31652, whole entry: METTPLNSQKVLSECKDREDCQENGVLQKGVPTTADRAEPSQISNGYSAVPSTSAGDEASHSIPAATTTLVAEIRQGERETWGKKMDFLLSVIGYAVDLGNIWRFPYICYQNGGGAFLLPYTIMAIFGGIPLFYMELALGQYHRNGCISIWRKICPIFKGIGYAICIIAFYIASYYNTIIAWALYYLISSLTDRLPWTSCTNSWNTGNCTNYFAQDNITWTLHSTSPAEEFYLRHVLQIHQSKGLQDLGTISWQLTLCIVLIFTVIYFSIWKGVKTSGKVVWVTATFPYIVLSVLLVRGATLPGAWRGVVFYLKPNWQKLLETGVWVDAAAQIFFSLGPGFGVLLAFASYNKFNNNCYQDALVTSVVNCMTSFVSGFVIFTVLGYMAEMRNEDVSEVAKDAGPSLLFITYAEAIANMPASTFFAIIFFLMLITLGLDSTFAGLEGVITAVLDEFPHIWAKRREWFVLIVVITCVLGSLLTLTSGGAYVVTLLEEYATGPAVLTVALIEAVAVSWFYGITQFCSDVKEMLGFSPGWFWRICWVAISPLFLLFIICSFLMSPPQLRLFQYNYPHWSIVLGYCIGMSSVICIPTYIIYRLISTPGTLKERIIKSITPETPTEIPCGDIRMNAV

Target: 5-HTT (Rattus norvegicus, UniProt P31652)
Details: cited from earlier work

In the case of `CCNC(C)Cc1cccc(C(F)(F)F)c1` (stereo not shown) [fenfluramine], the 5-HTT substrate is given as 5-HTT substrates.
